Experimental data from BindingDB's records for doi:10.1124/jpet.105.084343 (University of Rochester, 2005).

Chains of the proteins cited; added tags and fusions are not shown.
UniProt P35372, whole entry: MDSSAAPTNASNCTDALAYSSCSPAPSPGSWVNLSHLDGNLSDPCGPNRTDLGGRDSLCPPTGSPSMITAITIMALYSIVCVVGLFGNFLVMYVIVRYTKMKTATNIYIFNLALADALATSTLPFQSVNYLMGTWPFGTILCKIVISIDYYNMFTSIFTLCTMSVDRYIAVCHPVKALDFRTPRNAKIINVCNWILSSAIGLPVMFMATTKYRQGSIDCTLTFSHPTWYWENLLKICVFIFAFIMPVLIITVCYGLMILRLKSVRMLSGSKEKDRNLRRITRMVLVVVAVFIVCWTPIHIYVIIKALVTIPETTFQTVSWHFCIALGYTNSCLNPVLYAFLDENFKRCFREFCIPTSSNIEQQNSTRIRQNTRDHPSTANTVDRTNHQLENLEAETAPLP

Target: Mu-type opioid receptor (Homo sapiens, UniProt P35372)

Oc1ccc2c(c1)[C@@]13CCCC[C@H]1C(C2)N(CC1CCC1)CC3 [MCL-101]
Ki: 230 nM
